Test system: cross-linking of glycated bovine serum albumin (AGE-BSA) to rat tail tendon collagen
Assay: Cross-linking Inhibition Assay

With `Cc1csc[n+]1CC(=O)c1ccc(Br)cc1.[Br-]` [3-(2-[4^1-bromophenyl)-2-oxoethyl)-4-methyl-thiazolium bromide] the “Relative Cross-link Inhibition (at 10 mM)” value was 37%.

From US7022719B2, “Preventing and reversing the formation of advance glycosylation endproducts” (Alteon, Inc., priority 1995, dated 2006)
